Most compounds without a hit are left out; they make up all but 2.8% or so of the library.
esBAF inh = Bmi1 luciferase reporter increase in mESCs, primary screen, esBAF inhibitor project, mouse ES cells, Bmi1 luciferase knock-in, single point | 24 h; 100% = twice the neutral-well signal | reporter increase, % at 12.5 µM | actives 2% (n = 350,000) | AID 602393, 2012; in the data active means activation above about 40%;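 further: a rise in the Bmi1 reporter signal indicates esBAF inhibition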
PglD inh = C. jejuni PglD acetyltransferase inhibitors, primary screen, biochemical, DTNB colorimetric, single point; inhibition, % at 12.5 µM; UDP-N-acetylbacillosamine N-acetyltransferase PglD (Campylobacter jejuni); AID 602405, 2012; purified PglD enzyme, DTNB colorimetric CoA detection; actives 0.098% (n = 360,000); in the data active means inhibition above about 16%, passing the limit was not always enough
E-selectin induc = E-selectin induction in HUVECs, primary screen, imaging, HUVEC, immunofluorescence imaging, single point; P16581; normalized: neutral wells 0, TNF-alpha wells 100; activation, % at 7.58 µM; actives 0.37% (n = 260,000);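 active means mean E-selectin-positive cell signal at least 10% of the positive control, reached in at least 60% of replicates, without over 20% cell loss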
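Test system: HUVEC | Signal: Immunofluorescence imaging | Read-out: Percent E-selectin-positive cells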
Statin myotox sup = suppressors of statin myotoxicity in C2C12 myotubes, primary screen, cell-based, single point, plate reader; actives 0.78% (n = 330,000); AID 602340, 2012; rescue of ATP level, % at 7.49 µM; C2C12 myotubes + simvastatin, ATP luminescence, 48 h; scaled: DMSO 0, geranylgeraniol control 100;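 active means mean ATP rescue above about 67%, or every replicate alone reaching that limit, limit read from the data, passing the limit was not always enough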;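 further: myotubes were challenged with 10 µM simvastatin during compound exposure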
Yeast UUG start = modulators of yeast start codon fidelity, primary screen, whole organism, S. cerevisiae, single point, plate reader | AID 602363, 2012 | S. cerevisiae UUG-firefly luciferase reporter, luminescence/redox ratio | activity score, % at 18.7 µM | hit rate 0.13% among 350,000;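 active = replicate mean at a twofold rise or more, about +100% in these data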;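 also: firefly luciferase made from a UUG start codon reports start codon fidelity; reporter light over untreated wells divided by growth signal over untreated wells; some hits fall short of that in this replicate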
PGC1a acetyl inh = inhibitors of PGC1a acetylation signal, primary screen, cell-based, U2OS, AlphaScreen, inhibitor mode; actives 0.17% (n = 350,000); AID 651687, 2012; AlphaScreen anti-acetyl-lysine; with virally co-expressed GCN5 acetyltransferase; inhibition, % at 15.6 µM;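 active means every replicate shows inhibition of at least 40%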
A number is an active result.

For O=C(Cc1ccccc1)Nc1ccc(NC(=O)c2ccco2)nc1 the results were esBAF inh 46.2, PglD inh inactive, Statin myotox sup inactive, Yeast UUG start inactive and PGC1a acetyl inh inactive.
Screening O=C1C=C(NCc2ccc(Cl)c(Cl)c2)C2(CCCCC2)O1 returned esBAF inh inactive, PglD inh inactive, Statin myotox sup 142.3, Yeast UUG start inactive and PGC1a acetyl inh inactive.
O=C(NC1CCCC1)N1CC(=O)N2[C@H](CO)[C@@H](c3ccc(-c4cccc(F)c4)cc3)[C@@H]2C1 was read as E-selectin induc inactive and PGC1a acetyl inh inactive.
For CO[C@H]1CN(C)C(=O)c2cc(NC(=O)c3ccccc3F)ccc2OC[C@@H](C)N(C(C)=O)C[C@@H]1C the results were esBAF inh inactive, PglD inh inactive, E-selectin induc inactive, Statin myotox sup inactive and PGC1a acetyl inh 130.3.
`CCCNC(=O)Nc1ccc2c(c1)C(=O)N(C)C[C@H](OC)[C@H](C)CN(CC1CCCC1)[C@@H](C)CO2` gave esBAF inh inactive, E-selectin induc inactive, Statin myotox sup inactive and PGC1a acetyl inh 43.9.
`CO[C@@H]1CN(C)C(=O)c2cc(NC(=O)Nc3ccccc3)ccc2OC[C@@H](C)N(C(=O)CC2CC2)C[C@@H]1C` gave esBAF inh inactive, PglD inh inactive, E-selectin induc inactive, Statin myotox sup inactive and PGC1a acetyl inh inactive.
For CO[C@H]1CN(C)C(=O)c2cc(NC(=O)Nc3ccccc3)ccc2OC[C@H](C)N(C(=O)CC2CC2)C[C@@H]1C the results were esBAF inh 47.8, PglD inh inactive, E-selectin induc inactive, Statin myotox sup inactive and PGC1a acetyl inh inactive.
Screening CCCNC(=O)Nc1ccc2c(c1)C(=O)N(C)C[C@@H](OC)[C@@H](C)CN(CC1CCCC1)[C@@H](C)CO2 returned esBAF inh inactive, E-selectin induc inactive, Statin myotox sup inactive and PGC1a acetyl inh inactive.
`CC(C)[C@@H]1COCn2nncc2CC[C@H](Cc2ccccc2)C(=O)N1` gave E-selectin induc inactive.
`C[C@@H]1CN([C@@H](C)CO)S(=O)(=O)c2ccc(C3=CCCCC3)cc2O[C@@H]1CN(C)C(=O)C1CCCCC1` gave esBAF inh inactive, PglD inh inactive, E-selectin induc inactive, Statin myotox sup inactive, Yeast UUG start inactive and PGC1a acetyl inh inactive.
For CCC(=O)Nc1cccc(C(=O)OCC(=O)c2ccccc2Cl)c1 the results were esBAF inh 50.8, PglD inh inactive, Statin myotox sup inactive, Yeast UUG start inactive and PGC1a acetyl inh inactive.
Screening CC(=O)Nc1cccc(C(=O)OCC(=O)c2ccccc2Cl)c1 returned PGC1a acetyl inh inactive.
Screening Cc1ccc(C(=O)N/N=C/c2ccoc2)cc1C returned esBAF inh 49.8, PglD inh inactive, E-selectin induc inactive, Statin myotox sup inactive and Yeast UUG start inactive.
For COc1cccc(/C=N/NC(=O)CN(C)S(=O)(=O)c2ccccc2)c1OC the results were esBAF inh 55.9, PglD inh inactive, Statin myotox sup inactive and Yeast UUG start inactive.
`Cc1cccc(-c2ncc(S(=O)(=O)C(C)(C)C)c(N)n2)c1` gave esBAF inh 67.7, E-selectin induc inactive and Statin myotox sup inactive.
`CC(C)(C)S(=O)(=O)c1cnc(-c2cnccn2)nc1N` gave PglD inh inactive, E-selectin induc 46.0, Yeast UUG start inactive and PGC1a acetyl inh inactive.
Screening CC(C)(C)S(=O)(=O)c1cnc(-c2ccccn2)nc1N returned E-selectin induc inactive.
Cc1ccc(C(=O)COC(=O)c2ccc(Cl)c(N)c2)s1 was read as esBAF inh 92.1, PglD inh inactive, E-selectin induc inactive, Statin myotox sup inactive and Yeast UUG start inactive.
`CNC(=O)COC(=O)c1[nH]c(C)c(C(C)=O)c1C` gave esBAF inh inactive, Statin myotox sup inactive and PGC1a acetyl inh inactive.
Screening CC(=O)c1c(C)[nH]c(C(=O)OCC(=O)c2c[nH]c3ccccc23)c1C returned esBAF inh 53.0, PglD inh inactive, E-selectin induc inactive, Statin myotox sup inactive and Yeast UUG start inactive.
`Nc1cc(C(=O)OCC(=O)c2ccc(CC(=O)N3CCOCC3)s2)ccc1Cl` gave esBAF inh inactive, PglD inh inactive, E-selectin induc inactive, Statin myotox sup inactive, Yeast UUG start inactive and PGC1a acetyl inh inactive.
Screening O=C(OCC(=O)c1ccc(Br)s1)c1ccc(O)cc1 returned esBAF inh 75.8, PglD inh inactive, Statin myotox sup inactive, Yeast UUG start inactive and PGC1a acetyl inh inactive.
For CC(=O)c1c(C)[nH]c(C(=O)OCC(=O)c2ccc(C)s2)c1C the results were esBAF inh 56.2, PglD inh inactive, E-selectin induc inactive, Statin myotox sup inactive, Yeast UUG start inactive and PGC1a acetyl inh inactive.
COc1ccc(S(=O)(=O)N2C[C@@H](O)COC[C@H]3O[C@H](CC(=O)NCCN4CCCCC4)CC[C@@H]32)cc1 was read as esBAF inh inactive, PglD inh inactive, E-selectin induc inactive, Statin myotox sup inactive and PGC1a acetyl inh inactive.
c1ccc2c(c1)ncn2-c1ncnc2sc3c(c12)CCCC3 was read as esBAF inh inactive, PglD inh inactive, Statin myotox sup inactive, Yeast UUG start inactive and PGC1a acetyl inh inactive.
For CC(O)CNc1nc2ccccc2n1-c1ncnc2sc3c(c12)CCC3 (stereo not drawn) the results were esBAF inh inactive, PglD inh inactive, Statin myotox sup 114.0, Yeast UUG start inactive and PGC1a acetyl inh inactive.
COc1ccc2c3c([nH]c2c1)[C@@H](CO)N(C(=O)Nc1ccc(F)cc1)CC31CCN(C(=O)c2ccccn2)CC1 was read as E-selectin induc inactive and PGC1a acetyl inh inactive.
Screening Cc1cc(C(=O)Nc2cccc3c2O[C@@H](CN(C)S(C)(=O)=O)[C@@H](C)CN([C@H](C)CO)C3=O)n(C)n1 returned esBAF inh inactive, PglD inh inactive and Yeast UUG start inactive.
For NC(=O)c1ccsc1NC(=O)c1cccs1 the results were esBAF inh 46.8, PglD inh inactive, E-selectin induc inactive, Statin myotox sup inactive, Yeast UUG start inactive and PGC1a acetyl inh inactive.
For Cc1sc(NC(=S)NC(=O)C(C)(C)C)c(C(N)=O)c1C the results were esBAF inh 47.4, PglD inh inactive, Statin myotox sup inactive, Yeast UUG start inactive and PGC1a acetyl inh inactive.
CC(C)(C)C(=O)NC(=S)Nc1sc2c(c1C(N)=O)CCC2 was read as esBAF inh inactive, PglD inh inactive, E-selectin induc inactive, Yeast UUG start inactive and PGC1a acetyl inh inactive.
Cc1sc(NC(=O)c2cccs2)c(C(N)=O)c1C was read as esBAF inh 88.4, Statin myotox sup inactive and PGC1a acetyl inh inactive.

Screening results from PubChem.
